From BindingDB's records for 10.1016/S0960-894X(97)00406-X (1997)

Protein sequences, listed by entry. Tags and fused reporters are not part of them.
UniProt P41143, whole entry, looked up: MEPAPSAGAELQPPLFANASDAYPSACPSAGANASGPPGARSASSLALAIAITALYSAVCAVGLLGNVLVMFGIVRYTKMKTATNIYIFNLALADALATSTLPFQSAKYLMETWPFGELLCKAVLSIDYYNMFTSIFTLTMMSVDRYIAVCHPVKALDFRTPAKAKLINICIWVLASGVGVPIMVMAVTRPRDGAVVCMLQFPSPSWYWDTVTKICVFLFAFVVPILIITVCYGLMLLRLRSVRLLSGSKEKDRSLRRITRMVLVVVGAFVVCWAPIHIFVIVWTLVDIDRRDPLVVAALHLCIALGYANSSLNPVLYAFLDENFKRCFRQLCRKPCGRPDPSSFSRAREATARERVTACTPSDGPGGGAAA

Target: Delta-type opioid receptor (Homo sapiens, UniProt P41143)
Assay: ChEBML_147161
Experimental: Compound was evaluated for the inhibition of Opioid receptor delta 1 binding to guinea pig brain membranes, using 0.2 nM [3H]naltrindole as radioligand

Q: For `CN(C(=O)Cc1ccc(Cl)c(Cl)c1)[C@H](CN1CCCC1)c1cccc(N)c1`, which Ki is on record?
A: 7.8 nM

Q: `CN(C(=O)Cc1ccc(Cl)c(Cl)c1)[C@@H](CN1CCCC1)c1cccc(N)c1` was tested. Which Ki did it give?
A: 1850 nM
